Values quoted from earlier work as cited in paper PMC6824728 (International journal of pharmaceutics, 2019).

Conditions: 37°C; ref Kim and Hsieh, 2001; Wu and Hopkins, 1999; cited from earlier work

D-α-tocopherol polyethylene glycol 1000 succinate [TPGS]
Critical micelle concentration: 0.02 % (w/w)
